Consider 1 molecule from US4618613A, “Preventive and healing composition for diseases due to lipoxygenase metabolic products” (Kyowa Hakko Kogyo Company, Ltd., priority 1983, dated 1986).

Each structure is given as a SMILES string. Counter-ions that a name gives are not always drawn.

For the assay, the target named is T1, 5-lipoxygenase (Rattus norvegicus, UniProt P12527).
T1 construct: leukemic basophilic granulocyte cells of rats (RBL-1, ATCC No. CRL 1378) were used as a 5-lipoxygenase enzyme source; host or cells: RBL-1 (rat basophilic leukemia cells)
T1 sequence (P12527 1-673): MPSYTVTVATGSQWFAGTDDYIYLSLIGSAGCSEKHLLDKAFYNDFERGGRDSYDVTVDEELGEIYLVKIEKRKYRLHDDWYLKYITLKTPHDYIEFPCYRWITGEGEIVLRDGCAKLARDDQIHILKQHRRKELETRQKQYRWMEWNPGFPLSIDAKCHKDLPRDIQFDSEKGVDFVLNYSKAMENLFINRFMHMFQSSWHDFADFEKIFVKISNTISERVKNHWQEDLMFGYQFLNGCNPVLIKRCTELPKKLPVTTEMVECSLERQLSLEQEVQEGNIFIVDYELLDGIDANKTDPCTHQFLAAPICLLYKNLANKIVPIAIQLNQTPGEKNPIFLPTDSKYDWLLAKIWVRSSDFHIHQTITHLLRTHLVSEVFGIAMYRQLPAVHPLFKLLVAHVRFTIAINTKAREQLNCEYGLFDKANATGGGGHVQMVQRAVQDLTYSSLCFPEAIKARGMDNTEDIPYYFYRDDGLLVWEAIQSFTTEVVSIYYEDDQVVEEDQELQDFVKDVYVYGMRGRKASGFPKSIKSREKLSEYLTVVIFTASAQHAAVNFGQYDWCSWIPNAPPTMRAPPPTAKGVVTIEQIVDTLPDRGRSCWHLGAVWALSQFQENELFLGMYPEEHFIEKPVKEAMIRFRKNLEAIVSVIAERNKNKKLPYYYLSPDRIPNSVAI
As to the kind of experiment: inhibiting action upon leukocyte 5-lipoxygenase (RBL-1 cells as enzyme source). As to conditions: 20 μM [14C]-arachidonic acid, 0.7 mM calcium chloride, 37° C., 5 min. The class given is biochemical. Here is the method:
An inhibiting action of 2-n-heptyl-4-hydroxyquinoline-N-oxide upon lipoxygenase was determined by in vitro test according to the following procesure:
(b) Procedure for determining the inhibiting action upon leukocyte 5-lipoxygenase:
Determination was carried out according to modified B. A. Jakschik, et al, procedure (Biochem. Biophys. Res. Commun. 95, 103 (1980)). That is, leukemic basophilic granulocyte cells of rats (RBL-1, ATCC No. CRL 1378) were used as a 5-lipoxygenase enzyme source. The cells and 2-n-heptyl-4-hydroxyquinoline-N-oxide were brought into contact with each other in a 0.07 M tris hydrochloric acid buffer solution in the presence of 0.7 mM calcium chloride at 37° C. for 5 minutes, and then 20 μM of [^14 C]-arachidonic acid was added thereto. The mixture was incubated at 37° C. for 5 minutes. The reaction product was extracted with ethyl acetate/methanol/0.2M citric acid (30/4/1), and then separated by thin layer chromatography (developing solvent: petroleum ether/ethyl ether/acetic acid: 50/50/1). Spots of 5-hydroxy-[…]-eicosatetraenoic acid in the product were scraped off and ^14 C was measured by a liquid scintillation counter.
Inhibiting actions of compounds in Table 2 upon lipoxygenase were determined in the same manner as in Test Example 1.

As for `NC1=NN(c2cccc(C(F)(F)F)c2)CC1` [BW-755C, 3-amino-1-(3-trifluoromethylphenyl)-2-pyrazoline hydrochloride, reference compound], the IC50 – broadly, the concentration at which inhibition is half-maximal – is 4 µM.
